In patent US20140134690A1, “MICROBES AND METHODS FOR PRODUCING 1-PROPANOL” (University of Georgia Research Foundation, Inc., priority 2012, published 2014):

How the values were obtained:
CC(=O)CO = experiment: cells, lysate or membranes named; conditions: other: hydroxyacetone 20-120 mM, 0.25 mM NADH, crude extract, imidazole-HCl pH 7.0, 37° C.
CC(=O)C=O = experiment: cells, lysate or membranes named; conditions: other: methylglyoxal 20-120 mM, 0.25 mM NADH, crude extract, imidazole-HCl pH 7.0, 37° C.

Which Km (CC(=O)CO) does the source give for “E. coli MG1655 glycerol dehydrogenase (gldA), wild type (Escherichia coli K-12)” here?
The Km was 10.47 ± 0.55 mM.

And the Km (CC(=O)C=O)?
The Km was 68.24 ± 0.05 mM.
